Earlier results, collected in US5811456A, “Monoamine oxidase B inhibitors, processes for their preparation and use thereof” (priority 1994, dated 1998).
Like-named read-outs stand apart in the source and are kept apart here.

Tested on: MAO B
Settings: background, cited from earlier work

C#CCN(C)C(C)Cc1ccccc1 (centres unmarked) [Deprenyl]
inhibition of MAO B (in words): irreversible inhibitor of MAO B | inhibition of MAO B (in words) (listed as deprenyl): acts on MAO B
